Results reported in ChEMBL document CHEMBL1671719, “Inhibition of antibiotic-resistant Staphylococcus aureus by the broad-spectrum dihydrofolate reductase inhibitor RAB1” (Antimicrob Agents Chemother, 2010).

Legend:
[1] = tested on: Staphylococcus aureus; conditions: isolate NRS71
[2] = tested on: Staphylococcus aureus; conditions: isolate NRS123

For GENTAMICIN, which MIC [1] is on record?
Its MIC is 0.5 µg/mL.

What about the MIC [2] of the same sequence?
Its MIC is 0.5 µg/mL.
